Test results as given in patent US20110098554A1, “Monitoring of convection enhanced drug delivery” (priority 2004, published 2011).

How the values were obtained:
[1] = system: striatum of normal Sprague-Dawley (SD) rats; assay: Cytotoxic tissue response to CED by T2-weighted and diffusion-weighted MRI and histology
Method: (§1) The resultant solution was infused into the striatum of normal Sprague-Dawley (SD) rats (males, 250-300 grams). T1-weighted MR images were acquired immediately post treatment to assess the extent of convection. Additionally, T2-weighted and diffusion-weighted MR images were acquired 24 hours post treatment to assess the response of the tissue and its correlation to the extent of convection.
(§2) Under full anesthesia, a midline scalp incision was made to identify the bregma. A 1 mm burr hole was made in the right region of the skull, 3 mm anterior and 2 mm lateral to the bregma. A 33-gauge needle attached to a 1000 μl syringe (Gastight; Hamilton) was placed stereotactically 5.5 mm deep into the striatum. The infusion was performed using a BASI syringe pump at a rate of 1 μl/min for a duration ranging from […].
In order to obtain a wide range in volumes of distribution, the infusion times were varied between 17 to 60 minutes. 13 rats were treated with Carboplatin (4 mg/ml, 17 minutes infusion). […]
The volume (in cm^3) of the composition distribution was calculated from the T1-weighted MR images acquired immediately post CED treatment. […] The number of pixels in the ROIs was counted and multiplying by the volume of a single pixel. […]

[2] = CED into rat striatum, convection monitored by T1-weighted MRI of infusates mixed with Gd-DTPA; conditions: Gd-DTPA mixed with 0.2% human serum albumin, 17% sucrose or Taxol
Method: as §1, §2
The volume (in cm^3) of the composition distribution was calculated from the T1-weighted MR images acquired immediately post CED treatment. Region-of interests (ROIs) were defined over the entire enhancing region in each slice (excluding the ventricles). The number of pixels in the ROIs was counted and multiplying by the volume of a single pixel. Equation 1 was used to calculate ADC maps of the diffusion-weighted MR images.

## human serum albumin: non-toxic infusate, pharmaceutical carrier that increases viscosity
[1]; 24 hours post treatment, 0.2% human serum albumin, 17% sucrose or Taxol
  tissue toxicity (T2-weighted and diffusion-weighted MRI): no toxicity
[1]; efficient prolonged (90 minutes) CED of non-toxic infusates
  enhancement on T2-weighted and diffusion-weighted MR images at the site of the catheter tip: minor enhancement
[2]
  convection efficiency (T1-weighted MRI immediately post treatment): poor convection
